Some test systems named below: NCI-H23; A549; LOX IMVI; RXF 393; M14; MDA-N; COLO 205; NCI-H460; SF-539; SN12C; SK-MEL-5; SNB-19; HOP-62; DMS-114; MDA-MB-231; SNB-75; DU-145; BT-549; Malme-3M; M19-MEL; SK-OV-3; T47D; OVCAR-8; SW-620; OVCAR-3; SK-MEL-2; HT-29; OVCAR-4; SK-MEL-28; PC-3.
Holding throughout (experiment): growth of human tumour cells (NCI), 48 h

Counter-ions that a name gives are not always drawn.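 Growth conditions: 96-well plates. Treatment: test compound, 48 hours, 5 concentrations. Analysis: linear interpolation between bracketing concentrations; unreached endpoints set to highest concentration. GI50 = concentration required for 50% inhibition of growth.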 Active and inactive are the calls of the source. Rule as the data show it: active = GI50 up to about 1.1 µM and inactive = higher. Some results are limits rather than exact numbers.

`CC1C(=O)C(C)C(c2ccccc2)N(C)C1c1ccccc1` (stereo not given): the GI50 in the experiment on NCI-H23 is inactive: > 100000 nM.

Regarding `O=C1c2c(O)ccc(O)c2C(=O)c2c(NCCNCCO)ccc(NCCNCCO)c21` [MITOXANTRONE HYDROCHLORIDE], the GI50 with A549 is active: 11.4 nM; in the experiment with LOX IMVI, active: 20.6 nM; in the experiment with RXF 393, active: 65.2 nM; with M14 it was active: 118 nM; in the experiment with MDA-N it was active: 234 nM; with COLO 205 it was active: 108 nM. Also, the GI50 is active: 5.64 nM with NCI-H460; active: 17.8 nM with SF-539; active: 7.83 nM in the experiment on SN12C; active: 55.2 nM in the experiment on SK-MEL-5; active: 15.4 nM with SNB-19; active: 12.8 nM with HOP-62. Also, the GI50 in the experiment with DMS-114 is active: 11.5 nM; in the experiment on MDA-MB-231 it was active: 201 nM; with SNB-75, active: 14.1 nM; in the experiment with DU-145, active: 33.7 nM; in the experiment with BT-549, active: 70.3 nM; in the experiment on Malme-3M, active: 120 nM. Moreover, the GI50 in the experiment on M19-MEL was active: 91.4 nM; with SK-OV-3 it was active: 43 nM; in the experiment with T47D, active: 63 nM; in the experiment with OVCAR-8 it was active: 36.8 nM; in the experiment on SW-620, active: 54.2 nM; in the experiment with OVCAR-3, active: 285 nM. Also, the GI50 with SK-MEL-2 was active: 389 nM; with HT-29, active: 249 nM; with OVCAR-4 it was active: 332 nM; with SK-MEL-28 it was active: 468 nM; in the experiment with PC-3 it was active: 141 nM.

The values above are taken from ChEMBL document CHEMBL1201862, “PubChem BioAssay data set” (2004).
